Results reported in ChEMBL document CHEMBL5058646 (2022).

The chains behind the UniProt entries cited, without tags or fusion partners. Where a name states a change or a piece, a line headed by the entry shows the natural chain unless it says otherwise.
UniProt Q8IU85: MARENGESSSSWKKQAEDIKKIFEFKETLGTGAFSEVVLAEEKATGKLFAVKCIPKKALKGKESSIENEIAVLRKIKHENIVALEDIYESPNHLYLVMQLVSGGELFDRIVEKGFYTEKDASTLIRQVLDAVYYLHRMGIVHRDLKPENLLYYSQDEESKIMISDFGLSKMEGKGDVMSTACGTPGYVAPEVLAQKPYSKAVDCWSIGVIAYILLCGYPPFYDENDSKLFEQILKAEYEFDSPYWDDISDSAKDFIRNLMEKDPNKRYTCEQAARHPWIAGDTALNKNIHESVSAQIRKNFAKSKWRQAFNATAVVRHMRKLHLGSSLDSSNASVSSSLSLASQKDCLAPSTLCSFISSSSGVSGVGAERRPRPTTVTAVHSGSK
UniProt O95365: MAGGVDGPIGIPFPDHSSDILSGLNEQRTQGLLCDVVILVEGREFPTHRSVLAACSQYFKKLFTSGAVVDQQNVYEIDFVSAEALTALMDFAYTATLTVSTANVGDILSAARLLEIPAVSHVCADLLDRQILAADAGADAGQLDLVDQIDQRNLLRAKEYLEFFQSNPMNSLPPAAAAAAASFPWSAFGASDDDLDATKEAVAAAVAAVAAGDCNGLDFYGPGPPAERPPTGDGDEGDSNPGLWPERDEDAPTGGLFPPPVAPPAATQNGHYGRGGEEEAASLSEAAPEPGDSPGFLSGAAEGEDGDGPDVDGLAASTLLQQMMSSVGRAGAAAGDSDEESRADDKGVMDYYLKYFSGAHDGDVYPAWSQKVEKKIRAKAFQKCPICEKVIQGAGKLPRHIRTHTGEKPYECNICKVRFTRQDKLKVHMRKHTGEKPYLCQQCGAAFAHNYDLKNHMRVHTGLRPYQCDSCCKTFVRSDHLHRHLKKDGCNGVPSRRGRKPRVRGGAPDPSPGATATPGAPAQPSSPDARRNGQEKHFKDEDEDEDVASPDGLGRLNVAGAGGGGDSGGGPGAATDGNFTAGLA

Columns and labels:
[1] = biological target: Calcium/calmodulin-dependent protein kinase type 1D (Homo sapiens) (UniProt Q8IU85); conditions: Compound concentration 20.0 uM
[2] = biological target: T1, Zinc finger and BTB domain-containing protein 14 (Homo sapiens) (UniProt O43829); conditions: SUD4
T1 sequence (whole entry): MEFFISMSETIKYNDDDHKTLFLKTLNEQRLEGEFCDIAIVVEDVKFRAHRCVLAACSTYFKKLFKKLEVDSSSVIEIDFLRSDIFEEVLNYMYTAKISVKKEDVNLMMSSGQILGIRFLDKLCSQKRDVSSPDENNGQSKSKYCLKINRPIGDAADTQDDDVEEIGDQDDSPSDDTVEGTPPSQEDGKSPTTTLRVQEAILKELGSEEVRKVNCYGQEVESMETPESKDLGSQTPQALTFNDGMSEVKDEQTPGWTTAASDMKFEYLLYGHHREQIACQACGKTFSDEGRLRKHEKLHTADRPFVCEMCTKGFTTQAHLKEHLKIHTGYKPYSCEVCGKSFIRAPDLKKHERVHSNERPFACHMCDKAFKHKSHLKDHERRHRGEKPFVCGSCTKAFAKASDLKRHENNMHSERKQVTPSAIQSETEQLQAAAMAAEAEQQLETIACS

Myoneurin (Homo sapiens) = biological target: T2, Myoneurin (Homo sapiens) (UniProt Q9NPC7); conditions: SUD4
T2 sequence (whole entry): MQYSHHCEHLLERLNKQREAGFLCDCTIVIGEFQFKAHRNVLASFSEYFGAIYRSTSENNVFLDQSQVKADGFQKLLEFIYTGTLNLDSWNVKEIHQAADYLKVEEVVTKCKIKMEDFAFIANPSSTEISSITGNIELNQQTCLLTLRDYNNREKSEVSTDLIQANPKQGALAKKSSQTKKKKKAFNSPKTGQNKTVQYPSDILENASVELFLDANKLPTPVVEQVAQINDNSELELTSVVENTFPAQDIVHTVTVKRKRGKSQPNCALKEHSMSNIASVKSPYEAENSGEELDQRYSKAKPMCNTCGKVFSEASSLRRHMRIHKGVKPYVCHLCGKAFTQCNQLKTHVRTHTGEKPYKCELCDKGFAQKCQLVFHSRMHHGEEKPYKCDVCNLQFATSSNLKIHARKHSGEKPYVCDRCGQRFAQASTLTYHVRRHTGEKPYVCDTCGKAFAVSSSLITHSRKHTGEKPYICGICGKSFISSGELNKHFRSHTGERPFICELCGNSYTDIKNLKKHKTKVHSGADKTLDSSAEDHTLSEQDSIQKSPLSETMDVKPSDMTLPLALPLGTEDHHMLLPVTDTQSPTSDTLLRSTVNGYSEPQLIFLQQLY

[3] = biological target: T3, Zinc finger and BTB domain-containing protein 9 (Homo sapiens) (UniProt Q96C00); conditions: SUD4
T3 sequence (whole entry): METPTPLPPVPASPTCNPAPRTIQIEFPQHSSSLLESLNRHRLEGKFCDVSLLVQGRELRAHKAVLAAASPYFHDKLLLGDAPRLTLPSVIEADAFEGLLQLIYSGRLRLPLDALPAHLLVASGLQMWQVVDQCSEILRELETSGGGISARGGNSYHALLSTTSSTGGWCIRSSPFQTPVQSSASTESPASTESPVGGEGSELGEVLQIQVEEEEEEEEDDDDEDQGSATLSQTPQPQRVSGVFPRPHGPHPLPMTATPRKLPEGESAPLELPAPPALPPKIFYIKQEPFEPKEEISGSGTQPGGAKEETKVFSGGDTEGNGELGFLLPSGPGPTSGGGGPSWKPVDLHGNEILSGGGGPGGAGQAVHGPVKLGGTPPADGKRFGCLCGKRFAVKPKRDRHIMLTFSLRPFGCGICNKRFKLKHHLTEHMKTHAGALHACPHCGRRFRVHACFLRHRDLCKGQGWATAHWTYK

[4] = biological target: Zinc finger and BTB domain-containing protein 7A (Homo sapiens) (UniProt O95365); conditions: SUD4
[5] = biological target: T4, Zinc finger protein 131 (Homo sapiens) (UniProt P52739); conditions: OCI-Ly1
T4 sequence (whole entry): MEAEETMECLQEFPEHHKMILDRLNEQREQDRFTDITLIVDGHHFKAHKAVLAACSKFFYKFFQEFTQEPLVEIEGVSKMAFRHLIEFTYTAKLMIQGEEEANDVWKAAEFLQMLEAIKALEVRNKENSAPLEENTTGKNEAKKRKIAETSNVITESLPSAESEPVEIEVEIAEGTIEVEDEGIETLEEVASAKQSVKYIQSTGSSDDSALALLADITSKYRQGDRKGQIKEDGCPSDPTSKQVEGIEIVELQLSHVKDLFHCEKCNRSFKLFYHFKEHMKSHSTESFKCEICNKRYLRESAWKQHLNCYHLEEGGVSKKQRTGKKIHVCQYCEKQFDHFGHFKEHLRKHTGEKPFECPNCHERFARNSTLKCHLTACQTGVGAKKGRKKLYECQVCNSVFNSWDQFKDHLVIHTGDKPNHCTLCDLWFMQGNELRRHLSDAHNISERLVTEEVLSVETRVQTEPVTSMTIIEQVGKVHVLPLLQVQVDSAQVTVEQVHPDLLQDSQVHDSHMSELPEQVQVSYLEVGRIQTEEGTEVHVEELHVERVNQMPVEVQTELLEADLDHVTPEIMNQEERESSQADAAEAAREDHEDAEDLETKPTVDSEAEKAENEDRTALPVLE

Tm [1]: 49 °C
Normalized abundances for DMSO [2]: 351
Normalized abundances for compound [2]: 372
Normalized abundances for DMSO (Myoneurin (Homo sapiens)): 125
Normalized abundances for compound (Myoneurin (Homo sapiens)): 110
Normalized abundances for DMSO [3]: 942
Normalized abundances for compound [3]: 1000
Normalized abundances for DMSO [4]: 911
Normalized abundances for compound [4]: 869
Normalized abundances for DMSO [5]: 34.9
Normalized abundances for compound [5]: 21.3
Compound: C[C@@H]1CN(c2ncc(Cl)c(Nc3ccc4c(c3)n(CCC(C)(C)O)c(=O)n4C)n2)C[C@H](C)C1(F)F
